The values that follow come from patent publication US20040067483A1, “Compositions, methods and kits for identying protein-protein interaction disrupting agents” (priority 2003, published 2004).

For assay [1], the target named is T1, interaction between EGFR and p85 (Homo sapiens, UniProt P00533). As to the kind of experiment: Mammalian reverse two-hybrid system, secreted β-lactamase reporter (AD-p85-IRES-BD-EGFR). Type of assay: cell-based. Conditions: 12 hr Dox and AG1478 at indicated concentrations; nitrocefin, 30 min; absorbency at 488 nm; FIG. 5. As for the experimental part:
β-lactamase. […] The cells were induced with Dox at a final concentration of 1 μg/ml for 12-24 hrs for reporter protein expression. 50 μl or 100 μl of reaction solution containing 100 mM phosphate, pH 7.0, 10 μM nitrocefin, 0.5 μM oleic acid was added to each well. The reaction was carried out at 37° C. for 30-60 minutes. In some experiments, clavulanic acid, an inhibitor for β-lactamase was added at a concentration of 25 μM. β-lactamase activity was measured as an increase in absorbency at 488 nm.
In obtaining the results shown in FIG. 5, cells that were stably expressing the TetR-KRAB construct, the GFP-β-lactamase construct, and the AD-p85-IRES-BD-EGFR construct were grown in 100 or 50 μl of DMEM without Phenol Red and treated with Dox and the inhibitor AG1478 at the indicated concentrations for 12 hr. The substrate nitrocefin, in 100 or 50 μl of the reaction buffer, was added to each assay. The reaction was carried out for 30 min at 22° C. The activity of the secreted β-lactamase in the medium was directly measured by absorbency at 488 nm in a multi-well plate reader.

The target in assay [2] is interaction between the EGFR and p85 (Homo sapiens, UniProt P00533). As to conditions: 293A cells; 1 μg/ml Dox, 48 hrs; FK506 100 nM, AG1478 2.5 μM; FIG. 3.
Assay [3] has as its target T1, interaction between EGFR and p85. In kind it is cell-based. As to conditions: 293A cells, transient transfection; AG1478 2.5 μM; photomicrographs 48 hrs after treatment; FIG. 4e-4h. As for the experimental part:
FIGS. 4e to 4h show visual evaluation of GFP expression. […] Photomicrographs of the cells showing expression of GFP were taken 48 hrs after the treatment of cells. The concentration of AG1478 used was 2.5 μM and that of FK506 was 100 nM.

Another assay has as its target kinase of the EGFR (Homo sapiens, UniProt P00533). As to conditions: cited from earlier work.

On to `COc1cc2ncnc(Nc3cccc(Cl)c3)c2cc1OC` [AG1478], for which, in assay [1], the “β-lactamase activity in the medium (disrupting the interaction between EGFR and p85)” value is listed as “dose-dependent effect”. In assay [2], the “Dox-induced GFP expression (GFP reporter gene)” value is “nearly completely antagonized”. For the same compound, the “Visual indication of disruption of interaction by GFP reporter” value in assay [3] was “non-expression of the GFP reporter gene”. On kinase of the EGFR, the “Inhibition of the kinase of the EGFR” value is listed as “potent inhibitor”.
